This is an account of results in patent US20180044685A1, “APPLICATION OF SYK SERVING AS THERAPEUTIC TARGET FOR HEPATIC FIBROSIS/HEPATIC CIRRHOSIS” (priority 2015, published 2018).

The target of one experiment is SYK kinase (Homo sapiens, UniProt P43405). The following applies: compared with Fostamatinib (R788), R406 and PRT062607 HCl; cited from earlier work.
The subject of a further experiment is human primary HSCs. The following applies: GS-9973 1 μM, 24, 48 and 72 hours, along with prolongation of treatment time.

SMILES strings stand for the structures.

Turning to `c1cn2cc(-c3ccc4cn[nH]c4c3)nc(Nc3ccc(N4CCOCC4)cc3)c2n1` [GS-9973, Entospletinib], the “activity in inhibiting SYK kinase” value at SYK kinase was “most stable and significant activity”. For the same compound, the “inhibition effect on cell proliferation” value in the experiment with human primary HSCs is listed as “obvious inhibition effect”.
